Results reported in patent publication US20220062291A1, “COMPOSITIONS AND METHODS OF TREATING CANCERS BY ADMINISTERING A PHENOTHIAZINE-RELATED DRUG THAT ACTIVATES PROTEIN PHOSPHATASE 2A (PP2A) WITH REDUCED INHIBITORY ACTIVITY TARGETED TO THE DOPAMINE D2 RECEPTOR AND ACCOMPANYING TOXICITY” (DANA-FARBER CANCER INSTITUTE, INC., priority 2018, published 2022).

Experiment: Dose-dependent neurological toxicity in mice
Settings: up to 80 mg/kg body weight/dose, per orally every 24 hours

Q: With COc1ccc(C(=O)N2c3ccccc3Sc3ccc(Cl)cc32)cc1 [iPAP1] as the compound, how does the neurological toxicity read?
A: did not show any neurological toxicity
